Data on one compound can be found in patent US20250163076A1, “SYNTHESIS OF BRUTON'S TYROSINE KINASE INHIBITORS” (JANSSEN PHARMACEUTICA NV, priority 2022, published 2025).

Sequences of proteins named here, by UniProt entry; tags and fusion partners are left off. A change or cut given only in a name is not applied to a line headed by its entry.
UniProt Q06187: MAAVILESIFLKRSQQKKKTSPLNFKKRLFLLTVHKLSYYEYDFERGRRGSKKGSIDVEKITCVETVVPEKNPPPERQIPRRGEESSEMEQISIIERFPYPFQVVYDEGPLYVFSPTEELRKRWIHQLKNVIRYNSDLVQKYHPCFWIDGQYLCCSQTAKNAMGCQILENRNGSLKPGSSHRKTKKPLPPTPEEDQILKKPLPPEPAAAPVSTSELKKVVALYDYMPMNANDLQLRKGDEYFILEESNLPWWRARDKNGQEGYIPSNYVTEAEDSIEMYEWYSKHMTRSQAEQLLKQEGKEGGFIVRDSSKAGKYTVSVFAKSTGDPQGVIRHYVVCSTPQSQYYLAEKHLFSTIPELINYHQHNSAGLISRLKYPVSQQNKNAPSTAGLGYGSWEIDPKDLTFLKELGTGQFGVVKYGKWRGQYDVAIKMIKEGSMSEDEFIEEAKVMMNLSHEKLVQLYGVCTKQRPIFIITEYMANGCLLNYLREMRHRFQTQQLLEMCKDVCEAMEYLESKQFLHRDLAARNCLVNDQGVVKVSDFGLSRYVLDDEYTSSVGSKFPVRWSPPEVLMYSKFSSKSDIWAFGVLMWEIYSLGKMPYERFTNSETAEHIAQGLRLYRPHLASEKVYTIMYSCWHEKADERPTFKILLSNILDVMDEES

The term kinact/KI denotes the maximal inactivation rate divided by the concentration that gives half of it. A word on the kinact: it is the rate constant of inactivation at saturating inhibitor.

For this experiment, the target named is BTK (Homo sapiens, UniProt Q06187). The experiment is described as follows: BTK covalent inhibition kinetics (KI, kinact, kinact/KI). Format: biochemical. The note with it: Table 3. The text has this:
Initial structure-activity relationships for a new series of BTK inhibitors exemplified by Compound A (Table 3) have been previously conducted, (Tichenor, et al., ACS Med. Chem. Lett. 2021, 12, 782-790) with an acrylamide electrophile designed to engage in a covalent bond with Cys481. […] Therefore, subsequent optimization of Compound A focused on increasing aqueous solubility and oral bioavailability from solid formulations suitable for preclinical tolerability assessment and advancement into human clinical trials. The development of the structure-activity relationship was conducted by characterizing the non-covalent affinity of each inhibitor for BTK (KI) and the first order rate constant for irreversible covalent bond formation (kinact). The second order rate constant kinact/KI ratio is used to assess the covalent inhibitor potency because it is independent of incubation time and substrate concentrations (Copeland, R. A. Evaluation of Enzyme Inhibitors in Drug Discovery: a Guide for Medicinal Chemists and Pharmacologists; 2nd ed.; Wiley: Hoboken, N.J., 2013).

For the compound `C=CC(=O)N1CC[C@@H](NC(=O)c2sc3nccc4c3c2NC(=O)N4c2ccc(Oc3ccccc3)cc2C)C1` [Compound A], the second-order inactivation constant (kinact/KI) came out at 15900 M⁻¹ s⁻¹. Moreover, where the note is “average of two independent determinations (±SD)”, the inactivation rate constant (kinact) was determined as 0.000346 ± 2.5e-05 s⁻¹.
